# Source: patent US5508261, “Analogs of glycoprotein hormones having altered receptor binding specificity and activity and methods for preparing and using same” (University of Medicine & Dentistry of New Jersey, dated 1996)
# Numbering of substitutions follows the chain as printed.
# B1: Analog "D" (ligand)
# chain 1: not shown
# chain 2: SKEPLRPRCRPINATLAVEKEGCPVCITVNITICAGYCPTMTRVLQGVLPALPQVVCNYRDVRFESIRLPGCPRGVNPVVSYAVALSCQCALCDSDSTDCGGPKDHPLTCDDPRFQDSSSSKAPPPSLPSPSRLPGPSDTPILPQ
# B2: recombinant hCG (ligand)
# chain 1: not shown
# chain 2: B1 chain 2 with D94R, S95R, D96S, S97T
# B3: recombinant hFSH (ligand)
# chain 1: not shown
# chain 2: NSCELTNITIAIEKEECRFCISINITWCAGYCYTRDLVYKDPARPKIQKTCTFKELVYETVRVPGCAHHADSLYTYPVALQCHCGKCDSDSTDCTVRGLGPSYCSFGEMKE
# B4: Analog "G" (ligand)
# chain 1: not shown
# chain 2: SKEPLRPRCRPINATLAVEKEGCPVCITVNITICAGYCPTMTRVLQGVLPALPQVVCNYRDVRFESIRLPGCPRGVNPVVSYAVALSCQCALCRRSTTDCTVRGLGPSYCDDPR
# B5: Analog "DG'" (ligand)
# chain 1: not shown
# chain 2: B4 chain 2 with R94D, R95S, S96D, T97S, D111S, D112F, P113G, R114E
# Assays:
# [1] = target: rat luteal ovarian LH receptors (rat, UniProt P16235); test: inhibition of 125I-hCG binding to rat luteal ovarian LH receptors
# Procedure: These values were obtained by dividing the concentration of analog required to inhibit ^125I-hCG binding to rat luteal ovarian LH receptors or ^125I-hFSH binding to bovine testes FSH receptors by 50% into that required for recombinant hCG and recombinant hFSH, respectively. The concentrations of the analogs were determined by sandwich immunoassay using antibodies B105 and A113. The term "N.D." means not determined because concentrations of analog were not employed high enough to detect 50% inhibition. This was because the amounts of hFSH needed to bind to LH Receptors are several orders of magnitude greater than that of hCG and vice versa the amounts of hCG needed to bind to FSH receptors are several orders of magnitude greater than that of hFSH.
# An aliquot of the ligation mixture was taken and used to transform DH5-alpha strain E. coli. (obtained from Bethesda Research Laboratories, Gaithersburg, Md.). Plasmid DNAs from ampicillin-resistant DH5-alpha clones were screened by digestion with BglII (which is unique to vectors containing the cassette) and EcoRI (which cuts in the vector). Positive clones were identified by the presence of two fragments (approximately 0.8 Kbp and 2.9 Kbp). The sequence in the coding region of one of these plasmids, which lacked most of the beta-subunit cDNA due to excision of the PvuII fragment, was confirmed by dideoxysequencing as described (10). The remainder of the beta-subunit cDNA (encoding hCGβ amino acids 1–87) was restored by ligation of the 2.3 Kbp PvuI-PvuII fragment of this vector and the 2.9 Kbp PvuI-PvuII fragment from pSVL-hCG-beta'. The ligation mixture was used to transform DH5-alpha strain E. coli. and ampicillin resistant clones were obtained. […] After the DNA was subjected to a dideoxy sequencing procedure to confirm that it encoded "GT" (Table 1), the plasmid DNA was then cotransfected into COS-7 cells (obtained from the American Type Culture Collection) along with pSVL-hCG-alpha, a pSVL-based plasmid encoding the human glycoprotein hormone alpha-subunit (10, 21), using a DEAE-dextran procedure (10). […]
# [2] = target: bovine testes FSH receptors (bovine, UniProt P35376); test: inhibition of 125I-hFSH binding to bovine testes FSH receptors
# Procedure: The concentrations of the analogs were determined by sandwich immunoassay using antibodies B105 and A113. The term "N.D." means not determined because concentrations of analog were not employed high enough to detect 50% inhibition. This was because the amounts of hFSH needed to bind to LH Receptors are several orders of magnitude greater than that of hCG and vice versa the amounts of hCG needed to bind to FSH receptors are several orders of magnitude greater than that of hFSH.
# The ligation mixture was used to transform competent DH5-alpha strain E. coli. (23, 24). Transformed cells were selected by their abilities to grow on agar plates containing amphicillin. Ampicillin resistant colonies were chosen and plasmid minipreparations were made by the boiling lysis method (23, 24). The plasmid DNA was then tested for the presence of HindIII-ApaI endonuclease restriction sites. Plasmid DNA having the desired sequences was cleaved into three fragments (approximately 0.8 Kbp, 1.1 Kbp, and 3.4 Kbp). After the DNA was subjected to a dideoxy sequencing procedure to confirm that it encoded "G" (Table 1), the plasmid DNA was then cotransfected into COS-7 cells (obtained from the American Type Culture Collection) along with pSVL-hCG-alpha, a pSVL-based plasmid encoding the alpha-subunit (10, 21), using a DEAE-dextran procedure (10, 21, 23, 24). Beginning in 1–2 days and for a few days thereafter, the COS-7 cells produced significant amounts of the free subunits and the heterodimer. These were present in the culture media and heterodimer was detected using sandwich immunoassays employing monoclonal antibodies A113 and B105 (10). The protein was concentrated by ultrafiltration and monitored for its abilities to bind to LH and FSH receptors by radioligand receptor assays using ^125I-hCG and ^125I-hFSH as tracers and rat ovarian corpora lutea and bovine testes as sources of LH and FSH receptors as described (10).
Binder,activity relative to hCG (LH RECEPTORS; ratio of concentrations for 50% inhibition) [1],activity relative to hFSH (FSH RECEPTORS; ratio of concentrations for 50% inhibition) [2]
B1,0.065 relative to recombinant hCG,
B2,1 relative to recombinant hCG,
B3,,1 relative to recombinant hFSH
B4,0.62 relative to recombinant hCG,0.29 relative to recombinant hFSH
B5,,0.32 relative to recombinant hFSH
